Reference: ChEMBL document CHEMBL1201862, “PubChem BioAssay data set” (2004)

Sequences of proteins named here, by UniProt entry; tags and fusion partners are left off. A change or cut given only in a name is not applied to a line headed by its entry.
UniProt P05187: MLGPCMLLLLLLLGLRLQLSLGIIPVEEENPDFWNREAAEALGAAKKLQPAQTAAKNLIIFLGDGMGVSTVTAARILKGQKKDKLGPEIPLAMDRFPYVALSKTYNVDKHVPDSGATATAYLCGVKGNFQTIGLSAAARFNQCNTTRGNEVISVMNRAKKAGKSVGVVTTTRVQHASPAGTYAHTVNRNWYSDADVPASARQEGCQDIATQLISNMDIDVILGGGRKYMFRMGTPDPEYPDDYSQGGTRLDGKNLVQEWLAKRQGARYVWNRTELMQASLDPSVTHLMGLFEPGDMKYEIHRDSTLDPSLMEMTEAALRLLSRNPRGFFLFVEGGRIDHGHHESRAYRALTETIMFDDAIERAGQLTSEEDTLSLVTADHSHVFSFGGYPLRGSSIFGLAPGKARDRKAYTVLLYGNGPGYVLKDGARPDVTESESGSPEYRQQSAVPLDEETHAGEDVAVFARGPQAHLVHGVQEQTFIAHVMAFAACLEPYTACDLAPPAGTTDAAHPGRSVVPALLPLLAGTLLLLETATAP

Molecular target: Alkaline phosphatase, placental type (Homo sapiens, UniProt P05187)
Experiment: PLAP enzyme inhibitors, confirmation, biochemical, luminescence (AID 1512)
Format: functional

SMILES | IC50
COc1ccc2c(c1OC)C(=O)OC2CC(=O)c1ccc(O)c(O)c1 (configuration not stated) | active: 2.95 µM
O=C(Cn1cnc2ccccc21)c1ccc(O)c(O)c1 | active: 1.53 µM

Active and inactive are the calls of the source. Cut-off read from the data, not from the text of the source: actives have a measured IC50 and inactives only a lower limit.
